# Laboratory results reported in PubChem BioAssay AID743416 (Broad Institute, 2014).
# The list shows a part of the results, in another mix than the full data. Results with a measured potency or affinity are listed apart. Active and inactive are the calls of the source. The rule behind the calls is not given here.
# Assay: HepG2 cell cytotoxicity, dose response, cytotoxicity control, plate reader, cherry-pick, antagonist series (AID 743416);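 note: 0% = neutral control wells and -100% = positive control wells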
# Conditions: at 26 µM (top of the series)
structure (smiles),measurement,value
COc1cccc(C(c2nnnn2C2CCCCC2)N2CCC(n3c(=O)[nH]c4ccccc43)CC2)c1OC (stereo unspecified),"activity change, negative = cytotoxicity",inactive: -5.22%
